Where two headings read alike, the source gives them in different places.
Assays:
CRAF [1] = molecular target: T1, CRAF (Mus musculus, UniProt Q99N57); details: BCR-ABL^T315I Ba/F3 cells
[2] = system: BCR-ABL^T315I Ba/F3 cells
[3] = system: BV173R cells (BCR-ABL^T315I)
CRAF [4] = molecular target: T1, CRAF; assay: Endogenous CRAF kinase activity in BCR-ABL Ba/F3 cells

## Cc1nc(Nc2ncc(C(=O)Nc3c(C)cccc3Cl)s2)cc(N2CCN(CCO)CC2)n1 [dasatinib]
CRAF [1]
  CRAF activity: activated CRAF
[2]
  BCR-ABL and CRKL phosphorylation: did not inhibit BCR-ABL or CRKL phosphorylation
  BRAF binding to CRAF: enhanced BRAF binding to CRAF
  CRAF (S338) phosphorylation, MEK and ERK activity/phosphorylation: induced CRAF phosphorylation on S338 (Fig 3C) and activated CRAF (Fig 3D), MEK and ERK
[3]
  BRAF binding to CRAF: induced BRAF binding to CRAF
  MEK and ERK activity: activated MEK and ERK
CRAF [4]
  CRAF activity: blocked CRAF activity

Source: PMC3951999 (Cancer cell, 2011)
